The entries are a selection whose mix differs from that of the whole data set. Some of these compounds have results that are not shown, active ones among them. Activity calls are given as the source filed them. No stated cut-off is given here; in the data, active means inhibition above about 30%; inactive means the rest.

A short description of the experiment: inhibition of GDH and TPI enzymes – biochemical, absorbance, full deck, artefact control for M. tuberculosis FBA inhibitor project, primary screen (AID 588335).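 Further: 0% = DMSO wells and 100% = wells lacking the enzyme.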 The following applies: GDH-TPI coupled enzyme counterscreen, NADH absorbance; at 4.8 µM; active compounds read high. On the technique in general: The purpose of a counterscreen is to sort out artefacts and off-target activity.
Regarding `COc1ccc(C(=O)NCC2(N(C)C)CCCCC2)cc1`, the inhibition was inactive: -9.87%.

Turning to `Cc1cc(C(=O)NCC2(N3CCCCC3)CCCCC2)ccc1[N+](=O)[O-]`, the inhibition is inactive: 1.82%.

Regarding `CCN1CCCC(OC(=O)C2(O)c3ccccc3C=Cc3ccccc32)C1` (stereo unspecified), the inhibition is inactive: -1.5%.

`O=C(NCC1(N2CCCCC2)CCCCC1)c1cccc(Br)c1`: the inhibition is inactive: 2.26%. In the case of `C=CCN1CCN(CCOC(=O)C(O)(c2ccccc2)c2ccccc2)CC1`, the inhibition was inactive: 3.88%.

On to `O=C(NCC1(N2CCCCC2)CCCCC1)c1cc(F)c(F)cc1Cl`, for which the inhibition was inactive: -3.73%. Turning to `Cc1ccccc1C(=O)NCC1(N2CCCCC2)CCCCC1`, the inhibition was inactive: -4.49%.

Take `CN(C)C1CCCC1OC(=O)C(O)(c1ccccc1)c1ccccc1` (stereo unspecified): the inhibition is inactive: 5.62%.

For `CN(C)c1ccc(C(=O)NCC2(N(C)C)CCCCC2)cc1`, the inhibition is inactive: 5.71%. Consider `Cc1ccc(C(=O)NCC2(N3CCCCC3)CCCCC2)cc1`, for which the inhibition is inactive: -8.02%.

`CCN(CC)CC(C)C(C)OC(=O)C(O)(c1ccccc1)c1ccccc1` (stereo unspecified): the inhibition is inactive: -1.23%. With `COc1cc(SC)ccc1C(=O)NCC1(N(C)C)CCCCC1`, the inhibition was inactive: 7%.

As to `CC(C)N1C(=O)CC2(CCN(CCOC(=O)C(O)(c3ccccc3)c3ccccc3)CC2)C1=O`, the inhibition was inactive: -7.06%.

Regarding `CN1[C@@H]2CC[C@H]1CC(OC(=O)C(O)(c1ccccc1)c1ccccc1)C2` (stereo partly specified), the inhibition was inactive: 0.42%. For `O=C(NCC1(N2CCCCC2)CCCCC1)c1cc([N+](=O)[O-])ccc1Cl`, the inhibition is inactive: 1.88%. Regarding `CC(C)Oc1ccc(C(=O)NCC2(N(C)C)CCCCC2)cc1`, the inhibition is inactive: 2.54%. Turning to `O=C(OCCN1CCCC1)C(O)(c1ccccc1)c1ccccc1`, the inhibition was inactive: 3.88%.

Take `CN(C)c1cccc(C(=O)NCC2(N(C)C)CCCCC2)c1`: the inhibition is inactive: 3.36%. Then `C=C(C)C#CC(O)(C(=O)OC1CCN(C)CC1)c1ccccc1` (stereo unspecified), with inactive: 9.96%. On to `COc1ccc(Br)c(C(=O)NCC2(N3CCCCC3)CCCCC2)c1`, for which the inhibition was inactive: 13.6%. With `O=C(OC1CN2CCC1CC2)C(CO)(c1ccccc1)c1ccccc1` (stereo unspecified) the figure was inactive: -5.99%; with `O=C(NCC1(N2CCCCC2)CCCCC1)c1cccc(Cl)c1`, inactive: 3.72%; with `COc1cccc(C(=O)NCC2(N3CCCCC3)CCCCC2)c1`, inactive: 15.8%. As to `COc1ccc(Cl)cc1C(=O)NCC1(N(C)C)CCCCC1`, the inhibition is inactive: -7.62%. Then `COc1cc(C(=O)NCC2(N(C)C)CCCCC2)c([N+](=O)[O-])cc1OC`, with inactive: 18%; and `CN(C)C1(CNC(=O)c2ccc(Br)cc2)CCCCC1`, with inactive: -1%.

One may read the inhibition as the relative decrease from the control value, in per cent.

For the origin of these results see PubChem BioAssay AID588335 (The Scripps Research Institute Molecular Screening Center, 2011).
